The values below are quoted from earlier work in US11364219B2, “Methods and pharmaceutical compositions for treating microbiome dysregulations associated with circadian clock disruption” (INSERM (INSTITUT NATIONAL DE LA SANTÉ ET DE LA RECHERCHE …, priority 2016, dated 2022).

Molecules are shown by their SMILES.

In the data set the target is Csnk2. The following applies: Csnk2 inhibitors listed as examples; cited from earlier work.

In general, Ki refers to a dissociation constant, usually derived from enzyme kinetics or from competition with a known ligand. As for `CN(C)c1nc2c(Br)c(Br)c(Br)c(Br)c2[nH]1` [K25/DMAT, 2-dimethylamino-4,5,6,7-tetrabromo-1H-benzimidazole], the inhibition constant Ki was 40 nM.
Take `O=C1c2ccc(O)c(O)c2C(=O)c2c(O)ccc(O)c21` [quinalizarin, 1,2,5,8-tetrahydroxy-anthraquinone]: the Ki was 60 nM.
